Source: patent US9168295B2, “Vaccine peptide combinations” (Circassia Limited, priority 2007, dated 2015)

Tested on: peripheral blood basophils (PBMC) from cat allergic subjects
Assay: Histamine release assay and histamine ELISA
Type: cell-based, human
Procedure: Histamine release from fresh peripheral whole blood from cat allergic subjects was evaluated. Peripheral blood basophils were used as a surrogate for tissue mast cells which were not practical to assay. Blood was incubated in vitro with 9 individual peptides from the sequence of the major cat allergen Fel d 1 (SEQ ID NOS: 1, 2, 3, 4, 5, 6, 7, 11 and 12). These peptides were selected as potential T cell epitopes following peptide-MHC binding assays as explained in Example 1. Additionally, responses to a preferred mixtures of a mixture of 7 peptides identified in Example 1 were analysed. The tested preferred mixture of 7 peptides consisted of the peptides of SEQ ID NOS: 1 to 7. Histamine release in response to whole cat dander allergen extract acted as a positive control.
Peripheral blood mononuclear cells (PBMC) were isolated from the heparinised blood sample obtained from the subject. PBMC's were isolated by Ficoll-Hypaque density gradient separation. […]
Assays were performed on PBMC (which contain basophils). […] Histamine concentrations were measured by ELISA.
The assay required 3×10^6 PBMC's per subject. […] Once the results had been analysed and the ELISA performed in a satisfactory manner, the samples were discarded. […]
After completion of the histamine ELISA, individual histamine levels were determined by interpolation for the standard curve generated in the ELISA assay. […]

CC[C@H](C)[C@H](NC(=O)[C@@H](N)CCC(=O)O)C(=O)N[C@@H](CS)C(=O)N1CCC[C@H]1C(=O)N[C@@H](C)C(=O)N[C@H](C(=O)N[C@@H](CCCCN)C(=O)N[C@@H](CCCNC(=N)N)C(=O)N[C@@H](CC(=O)O)C(=O)N[C@H](C(=O)N[C@@H](CC(=O)O)C(=O)N[C@@H](CC(C)C)C(=O)N[C@@H](Cc1ccccc1)C(=O)N[C@@H](CC(C)C)C(=O)N[C@H](C(=O)NCC(=O)N[C@H](C(=O)O)[C@@H](C)O)[C@@H](C)O)C(C)C)C(C)C [MLA01, EICPAVKRDVDLFLTGT]
number of individuals in whom histamine release was detected: 4
